System: dental pulp stem cells (DPSCs)
Experiment: Proliferation of dental pulp stem cells, cell number by the MTS method
Format: cell-based, human
Protocol: Dental pulp stem cells (DPSCs) were isolated in accordance with a method of Gronthos et al. (Proc. Natl. Acad. Sci. USA, 97: 13625-30, 2000) from a human extracted tooth that was submitted with informed consent under the permission of Okayama University Dental School Ethics Committee. […]
Specifically, the DPSCs prepared above (1) were cultured under 5% CO2 at 37° C. in α-MEM culture medium including 10% fetal bovine serum (FBS) containing SVS at a concentration of 1 μM, L-ascorbic acid (0.1 mM), L-glutamine (2 mM), penicillin (100 μg/ml), and streptomycin (100 μg/ml). The culture medium was exchanged twice a week, and the number of cells on […] was indirectly evaluated using the MTS method (Barltrop, J. A. et al. 5-(3-carboxymethoxyphenyl)-2-(4,5-dimenthylthiazoly)-3-(4-sulfophenyl)tetrazolium, inner salt (MTS) and related analogs of 3-(4,5-dimethylthiazolyl)-2,5-diphenyl-tetrazolium bromide (MTT) reducing to purple water-soluble formazans as cell-viability indicators. Bioorg. & Med. Chem. Lett. 1, 611, 1991). […]
Specifically, simvastatin (Calbiochem) (1 μM) as an HGM-CoA reductase inhibitor and the above-mentioned Fasudil (1 μM, 10 μM, and 100 μM) respectively were used to culture DPSCs in a manner similar to Example 1, section (2). On day 5 from the beginning of cultivation, the cell number of DPSCs was measured using the MTS method. […]

B1: BMP-2: bone morphogenetic protein (R&D systems) known to have a dentinogenesis inducing effect (protein, UniProt P12643 283-396, looked up)
Bone morphogenetic protein 2: QAKHKQRKRLKSSCKRHPLYVDFSDVGWNDWIVAPPGYHAFYCHGECPFPLADHLNSTNHAIVQTLVNSVNSKIPKACCVPTELSAISMLYLDENEKVVLKNYQDMVVEGCGCR
proliferation of dental pulp stem cells (DPSCs) (BMP-2 100 ng/ml, day 5 from the beginning of cultivation, vs control (PBS), significant increase, p<0.0070): 1.05 fold
effect on cellular proliferation of DPSCs compared with the control (day 5, Example 4, FIG. 9, statin = simvastatin 1 μM): an effect on cellular proliferation of DPSCs was not observed

Source: patent US20100183563A1, “DENTINOGENESIS PROMOTER AND DENTINOGENIC PULP-CAPPING MATERIAL” (ORGAN TECHNOLOGIES, INC., priority 2007, published 2010)
